Data taken from patent US20040254129A1, “Use of ethoxylated phytosterols and phytostanols” (priority 2001, published 2004).

Tested on: fresh blood taken from beagle dog (red blood cells)
Experiment: Determination of hemolysis in fresh blood
Assay type: cell-based
Protocol: 100 μl surfactant solution was added to 400 μl fresh blood taken from beagle dog. The blood and surfactant mixture was gently agitated for 2-3 seconds immediately after addition, followed by 10 mins incubation at 37° C. under gentle shaking. […] During centrifugation the sample separated into a sediment of red blood cells and a supernatant. […] Each determination was carried out for triplicate samples.
After 30 minutes 400 μl of the so-obtained solution was mixed with 100 μl normal saline. From the resulting solution, a small fraction was removed and analysed with respect to hemoglobin content with a Cobas Bio spectrophotometer.
The degree of hemolysis was calculated according to the following expression [formula]
The position of the hemolysis curve along the concentration axis in such a diagram determines the hemolytic activity. The more hemolytic a surfactant is, the lower concentration is required to obtain a certain degree of hemolysis. In order to quantify the hemolytic activity, the concentration was considered at which 5% hemolysis was obtained. The higher the concentration, the lower the activity. The procedure was repeated at least once for all surfactants.

## Sucrose laurate
Surfactant 0.381 mM in blood/surfactant mixture
  degree of hemolysis, % H: 1.274%
Surfactant 0.610 mM in blood/surfactant mixture
  degree of hemolysis, % H: 3.287%
Surfactant 0.839 mM in blood/surfactant mixture
  degree of hemolysis, % H: 5.343%
Surfactant 1.067 mM in blood/surfactant mixture
  degree of hemolysis, % H: 8.328%
Surfactant 1.296 mM in blood/surfactant mixture
  degree of hemolysis, % H: 10.054%
Surfactant 1.525 mM in blood/surfactant mixture
  degree of hemolysis, % H: 12.417%
Surfactant concentration in blood/surfactant mixture, read from hemolysis curves
  Hemolytic activity (concentration range at which 5% hemolysis is obtained): 0.8 mM
